Measurements taken from publication PMC3818563, “Effect of Iboga Alkaloids on µ-Opioid Receptor-Coupled G Protein Activation” (PLoS ONE, 2013).

By UniProt entry, the sequences of proteins in these tests, tags left out.
UniProt P33535, whole entry: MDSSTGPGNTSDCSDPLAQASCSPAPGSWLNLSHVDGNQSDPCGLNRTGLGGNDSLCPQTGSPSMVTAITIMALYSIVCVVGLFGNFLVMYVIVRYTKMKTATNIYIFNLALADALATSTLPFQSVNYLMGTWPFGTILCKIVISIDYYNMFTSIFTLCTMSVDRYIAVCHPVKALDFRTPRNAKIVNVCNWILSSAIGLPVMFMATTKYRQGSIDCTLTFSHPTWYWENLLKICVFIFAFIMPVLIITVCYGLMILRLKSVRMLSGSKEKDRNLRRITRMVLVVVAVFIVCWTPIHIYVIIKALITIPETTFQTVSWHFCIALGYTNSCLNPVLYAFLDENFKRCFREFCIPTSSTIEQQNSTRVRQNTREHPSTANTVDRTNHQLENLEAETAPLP
UniProt P42866, whole entry: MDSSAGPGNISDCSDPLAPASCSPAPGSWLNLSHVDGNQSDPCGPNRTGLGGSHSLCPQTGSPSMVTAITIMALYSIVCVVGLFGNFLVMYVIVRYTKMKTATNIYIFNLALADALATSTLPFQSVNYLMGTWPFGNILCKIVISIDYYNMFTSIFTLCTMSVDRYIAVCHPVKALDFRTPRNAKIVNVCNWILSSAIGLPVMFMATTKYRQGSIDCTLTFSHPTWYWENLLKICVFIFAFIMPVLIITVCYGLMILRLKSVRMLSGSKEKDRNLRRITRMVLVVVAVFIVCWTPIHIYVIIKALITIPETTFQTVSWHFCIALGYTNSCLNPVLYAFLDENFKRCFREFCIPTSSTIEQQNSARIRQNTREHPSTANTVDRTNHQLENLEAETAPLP

Key:
rat rMOR = molecular target: T1, rat rMOR (Rattus norvegicus, UniProt P33535); assay: [35S]GTPγS binding in rMOR-expressing CHO cells (Janowsky lab); assay type: biochemical; settings: n=6, N/A = no agonist activity detected
T1 construct: expressed in transfected cells

μ-opioid receptor (MOR) [1] = molecular target: T2, μ-opioid receptor (MOR) (Rattus norvegicus, UniProt P33535); assay: [35S]GTPγS binding in Sprague-Dawley rat thalamic membranes (Reith lab); assay type: biochemical; design: from tissue; host or cells: rat thalamus membranes (Sprague-Dawley; also Fischer F344 in the Janowsky lab)
μ-opioid receptor (MOR) [2] = molecular target: T2, μ-opioid receptor (MOR); assay: [35S]GTPγS binding in Sprague-Dawley rat thalamic membranes (Childers lab); assay type: biochemical; design: from tissue; host or cells: rat thalamus membranes (Sprague-Dawley; also Fischer F344 in the Janowsky lab); settings: read-out: Agonist activity EC50, N/A = no agonist activity detected
μ-opioid receptor (MOR) [3] = molecular target: T2, μ-opioid receptor (MOR); design: method as in PMID 9592058; settings: rat thalamic membranes; read-out: EC50 for stimulating [35S]GTPγS binding; cited from earlier work
μ-opioid receptor (MOR) [4] = molecular target: T2, μ-opioid receptor (MOR); assay: [35S]GTPγS binding in Sprague-Dawley / Fischer 344 rat thalamic membranes (Janowsky lab); assay type: biochemical; design: from tissue; host or cells: rat thalamus membranes (Sprague-Dawley; also Fischer F344 in the Janowsky lab); settings: n=2, error = range, N/A = no agonist activity detected
mouse mMOR = molecular target: T3, mouse mMOR (Mus musculus, UniProt P42866); assay: [35S]GTPγS binding in mMOR-expressing HEK 293 cells (Reith lab); assay type: biochemical
T3 construct: expressed in transfected cells

[5] = Solubility of stocks in water

| Molecule | EC50 (rat rMOR) [nM] | EC50 (μ-opioid receptor (MOR) [1]) [nM] | EC50 (μ-opioid receptor (MOR) [2]) [nM] | EC50 (μ-opioid receptor (MOR) [3]) [nM] | EC50 (μ-opioid receptor (MOR) [4]) [nM] | Agonist activity Emax (%) (mouse mMOR) | IC50 (mouse mMOR; read-out: IC50 for reduction of DAMGO stimulation) [µM] | effect on thalamic [35S]GTPγS binding relative to baseline (μ-opioid receptor (MOR) [1]) | maximal concentration in water stocks without drug coming out of solution [5] [mM] |
| --- | --- | --- | --- | --- | --- | --- | --- | --- | --- |
| C[C@@H](NC(=O)[C@@H](N)Cc1ccc(O)cc1)C(=O)NCC(=O)N(C)[C@@H](Cc1ccccc1)C(=O)NCCO [DAMGO, [D-Ala^2, N-MePhe^4, Gly-ol]-enkephalin, reference compound] | 34 ± 4 | 238 ± 24 | 210 ± 330 | 7.1 | 122 ± 59 |  |  |  |  |
| Ibogaine HCl |  |  |  |  |  | no stimulation | 17 ± 4 | reduced thalamic [^35S]GTPγS binding below baseline | ≥ 1 |

Where two headings read alike, the source gives them in different places.
